# scFv variants of Ab-14 (light chain) against a SARS-CoV-2 spike peptide

Source: Li et al. 2023 (doi:10.1038/s41467-023-39022-2), MIT Lincoln Laboratory and A-Alpha Bio; data file from the FLAb repository.

Target peptide (SARS-CoV-2 spike, HR2 region): PDVDLGDISGINAS

Ab-14 is the parent antibody, in scFv form: VH, then the linker GGGGSGGGGSGGGGS, then VL. The heavy chain is unchanged in all variants.
VH: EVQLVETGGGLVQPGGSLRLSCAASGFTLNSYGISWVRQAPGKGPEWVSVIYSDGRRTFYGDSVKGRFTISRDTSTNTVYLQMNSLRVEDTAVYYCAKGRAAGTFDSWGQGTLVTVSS
VL: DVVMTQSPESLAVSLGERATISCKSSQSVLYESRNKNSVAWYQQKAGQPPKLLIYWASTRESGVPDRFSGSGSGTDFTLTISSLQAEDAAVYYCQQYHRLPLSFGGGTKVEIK

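Phage display of a naive human antibody library on the peptide gave the parent. This is the validation round: designs drawn from the data on random variants, tested in the same kind of assay. Several design methods are mixed in this list. The assay is AlphaSeq: two haploid yeast populations carry antibody and antigen on their surface. Pairs that bind mate more often; barcode pairs of the diploids are counted by sequencing. A regression on co-assayed BCL2-family reference pairs converts the normalised counts of each replicate to an apparent Kd. Each pool was mated in six replicate cultures.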

Variants are written as CDR1, CDR2 and CDR3 of the light chain (limits as in the source). Parent: KSSQSVLYESRNKNSVA, WASTRES, QQYHRLPLS.
Variants here have more than six changes.
Values are apparent Kd, the geometric mean of the replicates that gave a signal; lower means stronger binding.
An entry "nd" has no value in the source: the pair was not observed among the diploids in any replicate. This suggests poor binding but is not conclusive.

CDR-L1	CDR-L2	CDR-L3	Kd	seen in
MVNGIMDHLSKNTNNVA	ETTTREE	QQYDRLPLV	4.3 nM	6/6
NLSIQHQHQNMDANAVA	QTEIREV	QQYAQLPLA	1.9 nM	6/6
KLQQSWEYGSRNKNSVA	NASQRED	QQYHRLPLS	2.0 nM	2/6
RMEWHMSGATEAKNSMA	GVEHRAN	QQYDRLPLE	3.7 nM	6/6
KLSFSVMLESRNKNAVA	SASTRMS	QDYHRLPLS	4.5 nM	6/6
KYYPSYLYESRNKNSVA	QASTRES	QQYQLLPLS	990 pM	6/6
TIGASLMYGSRNRSNVA	EVSQRLN	QQYDRLPLE	90 nM	6/6
KVSEFMRGLTQRKDSIA	DNVTRNK	QQYDRLPLS	270 nM	4/6
LISSVWDYGSRNYNSVA	QTSTRES	QQYDRLPLE	7.2 nM	6/6
KLQLSMPYESRMKNSVA	QASVRES	QQYHRLPLS	1.2 nM	6/6
HISQSVGMTSFNKQSVA	ENSTREN	QQYDRLPLS	560 nM	2/6
TISQMTSLFSQTINNVA	EVSMREP	QQYDRLPLM	3.4 nM	6/6
HLSQMTDLESVHKNSIA	DLMTRES	QQYHRLPLS	1.8 nM	6/6
MMSQVTMSGMRHRNNVA	QTSAREP	QQYDRLPLI	11 nM	6/6
KISTQIPEFEMDDNAIA	SATLRET	QHYQRLPLS	290 nM	5/6
MMSMGSLGGMRARNNVA	QEETREK	QQYHHLPLI	21 nM	6/6
QFESLEEEGYAYSNNIA	GGEQRFS	QQYVKLPLV	7.1 nM	6/6
IAVQSWLYESRNKNSVA	GASTRED	QQYHRLPLI	7.5 nM	6/6
KLQQSMLYESRWHNSVA	DASVRCD	QQYHRLPLS	1.5 nM	6/6
QLGHYKHENMAKWQNVA	EMTIREK	QQYAHLPLA	14 nM	6/6
MISQLYNMGSFAINSVA	QASQRNE	QQYDRLPLE	16 nM	6/6
KISQSALMEPRNKNSVA	NASTRQM	QQYHRLPLS	39 nM	6/6
HLSFPWQLGHDSTNAVA	NDSTLMT	QHYNRLPLS	24 nM	6/6
KILQEVTGHSRNKNSVA	HNSTRED	QQYDRLPLS	760 nM	1/6
KLMSVTGTEKVHGNNVA	EMETREK	QQYNRLPLA	1.6 nM	6/6
TISQVMNTLTREGNNVA	DLQERES	QQYFRLPLS	64 nM	6/6
ILSDSVLSLSRNKNSVA	DNSTRES	QQYDRLPLS	120 nM	6/6
MFSQSVMYGSFYRNSVA	QTSTREN	QQYDRLPLS	5.0 nM	6/6
KLSQFYRMETRDKNSVA	DNSTRES	QDYDRLPLS	nd	0/6
KIGATLNTLMHTKNNVA	DLVTRED	QQYHRLPLS	1.1 nM	6/6
KLTEMFQHTSKNKNNIA	ERSTREE	QQYHHLPLS	1.4 nM	6/6
KLSGATRLESQKKASVA	ENSTRGE	QQYFRLPLS	8.2 nM	6/6
TLGDVTRMESNKKSSIA	DMSNRAE	QQYHRLPIS	12 nM	3/6
NLGFVDDNDNRGMMSVA	DANTVGE	QQYNRLPLA	7.5 nM	6/6
ALGQKGFQQSGMRDSIA	HSDIRLA	QQYYHLPLA	2.2 nM	6/6
KLSQSVLQLWRNKNNVA	QASHRES	QQYHRLPLS	1.8 nM	6/6
KMSQSVEQLDRWWNSVA	YASQREQ	QQYHRLPLS	49 nM	6/6
ILSQSVLMGSHLKNSVA	QASTRFS	QQYHRLPLM	9.5 nM	6/6
KVQLGLERGNQAYSAVA	GVTEKGD	QQYFQLPLG	13 nM	6/6
TISQMFLGESRNRNSVA	QASTREE	QSYDRLPLS	7.0 nM	6/6
KMQQLVWYEQRNKNSVA	DGSTREQ	QQYHRLPLS	1.0 nM	6/6
KLSQSAPYEDRCFNNVA	HASQRES	QQYHRLPLS	7.0 nM	6/6
MVTQMAMTGMMSKRSVA	NAETRES	QQYHRLPLI	7.9 nM	6/6
KLYMSTGYESRNKDNIA	DNSTRGR	QQYHRLPLS	6.1 nM	5/6
SMMFDTSDNYHERNNVA	DGAAIMA	QQYSILPLS	18 nM	6/6
KISGLQRFQQNAKNNIA	EMNRREE	QQYHRLPLS	910 pM	6/6
HLGGTMTWESKAKNSVA	QSVTRAE	QQYHRLPLS	2.5 nM	6/6
KLSMVTGHMSMAKNNVA	EMVTREK	QQYNRLPLA	440 pM	6/6
KLSQLVLMESRNHNSVA	SANTREE	QQYHRLPLS	1.0 nM	6/6
HMNHEYLEYSNYEGNIA	HGSQRLY	QQYSHLPLS	1.8 nM	6/6
KWQEGWLYESRNKNSVA	EGSTRES	QQYHRLPLS	1.9 nM	6/6
NISYLQGEPTNSVNNVA	QTSKRAH	QQYQHLPLC	7.8 nM	6/6

Nonspecific signal, from three strains lacking the peptide, appeared in 4% of pairings of all light chain designs, centred on 430 nM (5% of these signals below 38 nM); values are not corrected for it.
In the paper, a design with two or fewer of six values counts as a poor binder.
Values of this round are not directly comparable with the first-round values of the same sequences.
Of ten entries with the parent sequence, four were seen in most replicates (averages 2.2 nM to 240 nM), three in one and three in none, so single entries are noisy.